Values of other authors as cited in patent US7138151B2, “Calcium-fortified acidic beverages” (Unilab Pharmatech, Ltd., priority 2002, dated 2006).

Details: at 25° C.

calcium gluconate
solubility expressed as dissolved calcium: 0.35 % w/v
